Measurements published in PMC9119049 (Journal of medicinal chemistry, 2021).

What was measured:
HEK293T cells [1] = experiment: Cell growth inhibition, CellTiter Blue; format: cell-based; conditions: Homo sapiens, HEK-293T, 72 h, read-out: Cell growth inhibitory potential IC50
MM1.S cells = experiment: Cell growth inhibition, CellTiter Blue; format: cell-based; conditions: Homo sapiens, 72 h, read-out: Cell growth inhibitory potential IC50
HEK293T cells [2] = experiment: p21 immunoblotting in HEK293T cells; conditions: 6 h drug exposure

Structure (SMILES)	IC50 (HEK293T cells [1])	IC50 (MM1.S cells)	p21Cip1 levels (HEK293T cells [2])
CC[C@@H]1C(=O)N(C)c2cnc(Nc3ccc(C(=O)NC4CCN(C)CC4)cc3OC)nc2N1C1CCCC1 [BI2536]	0.6 ± 0.14 nM	1.2 ± 0.15 nM	
COc1cc(C(=O)NC2CCN(C)CC2)ccc1Nc1ncc2c(n1)N(C1CCCC1)CC(F)(F)C(=O)N2C [Ro3280]			increased significantly
